Assay results reported in ChEMBL document CHEMBL1681701, “Huprines as a new family of dual acting trypanocidal-antiplasmodial agents” (Bioorg Med Chem, 2011).
pIC50: −log10 of the molar value.

Tested on: L6
Assay: Cytotoxicity against rat L6 cells after 6 days by Alamar blue assay
Assay type: cell-based
In short: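 Rat skeletal myoblast L6 cells seeded at 1 × 10^4 ml−1 in growth medium with a range of compound concentrations and held 6 days at 37 °C. Alamar Blue was then added and fluorescence read after a further 8 h. IC50 is the mean of triplicate experiments ± SEM.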

## CCCCC1=CC2Cc3nc4ccccc4c(N)c3C(C1)C2 (stereo unspecified)
  pIC50: 5.17
